This test addresses SLC41A1 (human). In words: split-ubiquitin method screen (DUALmembrane SU-YTH) for SLC41A1 complex-forming partners.

B1: 3-beta-hydroxysteroid-Delta(8), Delta(7)-isomerase (enzyme)
chain: MTTNAGPLHPYWPQHLRLDNFVPNDRPTWHILAGLFSVTGVLVVTTWLLSGRAAVVPLGTWRRLSLCWFAVCGFIHLVIEGWFVLYYEDLLGDQAFLSQLWKEYAKGDSRYILGDNFTVCMETITACLWGPLSLWVVIAFLRQHPLRFILQLVVSVGQIYGDVLYFLTEHRDGFQHGELGHPLYFWFYFVFMNALWLVLPGVLVLDAVKHLTHAQSTLDAKATKAKSKKN
With B1, the occurrence was 24 clones.

(Values after US20130174289A1, “Na+/Mg2+ Exchanger” (FBN - Leibnitz-Institut fur Nutztierbiologie, published 2013).)
